Data as given in paper PMC10745346, “A Robust and Efficient FRET-Based Assay for Cannabinoid Receptor Ligands Discovery” (Molecules, 2023).

The chains behind the UniProt entries cited, without tags or fusion partners.
UniProt P34972, whole entry: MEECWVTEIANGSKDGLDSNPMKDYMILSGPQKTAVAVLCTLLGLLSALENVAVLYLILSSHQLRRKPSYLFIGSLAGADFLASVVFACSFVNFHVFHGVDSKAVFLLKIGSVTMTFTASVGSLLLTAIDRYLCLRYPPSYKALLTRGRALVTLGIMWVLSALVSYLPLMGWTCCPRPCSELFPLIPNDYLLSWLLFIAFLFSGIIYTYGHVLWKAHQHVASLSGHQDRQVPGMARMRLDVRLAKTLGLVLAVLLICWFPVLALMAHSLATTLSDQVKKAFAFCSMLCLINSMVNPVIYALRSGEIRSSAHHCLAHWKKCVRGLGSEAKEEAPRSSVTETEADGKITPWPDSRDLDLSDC

Target: T1, SNAP-CB2R (Homo sapiens, UniProt P34972)
T1 construct: host or cells: HEK-293 cells, transient transfection (lipofectamine 2000), living adherent cells
Assay: Tag-lite competition binding assay with CELT-335, living cells expressing SNAP-CB2R

Q: For C=C(C)[C@@H]1CCC(C)=C[C@H]1c1c(O)cc(CCCCC)cc1O [CBD, Cannabidiol], which Ki is on record?
A: Its Ki is 1.05 µM.
